The target of assay [1] is T1, muscarinic receptor (ileum) (Cavia porcellus, UniProt H0W1Z3).
T1 construct: from tissue; host or cells: guinea-pig ileal segments (male Hartley)
Nature of the assay: Anticholinergic action in guinea-pig ileum (antagonism of ACh response, Schild method). It is filed as cell-based, guinea pig (male Hartley). To be noted: Tyrode solution, 32° C., test compound 5 min. before ACh, read-out: Anticholinergic activity (pA2) Ileum (converted). The protocol:
(§1) 1. Anticholinergic action in guinea-pig ileum and atria Male Hartley guinea pigs were sacrificed by blowing on the head and bleeding.
Responses to acetyllchlloline (ACh) added cumulatively to the baths were isotonically recorded under a tension of 1 g. Dose-response curves of ACh were determined in the absence and presence of test compounds in various concentrations added to the baths 5 min. before ACh application.

Amino acid sequences for entries named in this document (tags omitted). Residues count along the entry.
UniProt H0W1Z3, 1-590: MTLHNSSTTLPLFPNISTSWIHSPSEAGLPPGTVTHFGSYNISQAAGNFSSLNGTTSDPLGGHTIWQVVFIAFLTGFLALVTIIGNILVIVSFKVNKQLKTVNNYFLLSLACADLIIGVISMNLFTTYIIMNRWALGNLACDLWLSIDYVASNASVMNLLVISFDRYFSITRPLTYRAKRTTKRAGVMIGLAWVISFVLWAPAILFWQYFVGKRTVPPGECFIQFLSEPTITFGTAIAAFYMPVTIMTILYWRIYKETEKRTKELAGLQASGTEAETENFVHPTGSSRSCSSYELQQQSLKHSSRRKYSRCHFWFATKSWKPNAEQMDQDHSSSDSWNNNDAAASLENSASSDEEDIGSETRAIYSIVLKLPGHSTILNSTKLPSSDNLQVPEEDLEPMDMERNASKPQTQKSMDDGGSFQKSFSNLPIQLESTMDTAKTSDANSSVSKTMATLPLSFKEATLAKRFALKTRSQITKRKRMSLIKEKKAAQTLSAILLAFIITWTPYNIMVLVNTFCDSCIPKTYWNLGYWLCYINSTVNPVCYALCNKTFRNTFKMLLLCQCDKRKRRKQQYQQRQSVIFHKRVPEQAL
UniProt H0VRN8, 1-466: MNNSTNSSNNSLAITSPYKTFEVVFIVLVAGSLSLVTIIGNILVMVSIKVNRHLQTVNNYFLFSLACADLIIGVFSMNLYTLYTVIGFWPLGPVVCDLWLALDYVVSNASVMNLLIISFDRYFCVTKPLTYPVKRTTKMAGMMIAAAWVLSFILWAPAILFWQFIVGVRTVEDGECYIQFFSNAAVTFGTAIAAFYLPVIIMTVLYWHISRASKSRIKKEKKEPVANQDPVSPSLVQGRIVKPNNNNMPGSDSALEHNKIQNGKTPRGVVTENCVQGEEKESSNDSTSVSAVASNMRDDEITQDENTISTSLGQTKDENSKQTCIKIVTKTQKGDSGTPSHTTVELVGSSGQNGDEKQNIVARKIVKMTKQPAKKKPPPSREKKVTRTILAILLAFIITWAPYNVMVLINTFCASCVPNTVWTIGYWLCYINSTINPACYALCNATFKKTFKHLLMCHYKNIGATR

For assay [2], the target named is T2, muscarinic receptor (atrium, cardiac) (Cavia porcellus, UniProt H0VRN8).
T2 construct: from tissue; host or cells: guinea-pig isolated atria (male Hartley)
Nature of the assay: Anticholinergic action in guinea-pig atria (antagonism of ACh response, Schild method). It counts as cell-based, guinea pig (male Hartley). To be noted: Table 8; isolated atria, Tyrode solution, 32° C., 10 min. equilibration; read-out: Anticholinergic activity (pA2) Atrium (converted). The protocol: as §1
The isolated atria were suspended under 0.5 g tension in organ baths containing Tyrode solution gassed with 95% O2 and 5% CO2 at 32° C.
Dose-response curves were obtained by cumulative addition of ACh and repeated in the presence of various concentrations of test compounds, allowing 10 min. equilibration time.
The affinity of test compounds were determined as described for ileum.

The structures appear in SMILES notation.

As for `Cc1nccn1CCC(C(N)=O)(c1ccccc1)c1ccccc1` [Example 11, 4-(2-Methyl-1-imidazolyl)-2,2-diphenylbutylamide], the Kb is 69.2 pM in assay [1] and 1320 pM in assay [2].
